Measurements taken from patent US8685986B2, “Medical composition for treatment or prophylaxis of glaucoma” (Ube Industries, Ltd., priority 2009, dated 2014).

Amino acid sequences for entries named in this document (tags omitted). A change or cut given only in a name is not applied to a line headed by its entry.
UniProt P43116: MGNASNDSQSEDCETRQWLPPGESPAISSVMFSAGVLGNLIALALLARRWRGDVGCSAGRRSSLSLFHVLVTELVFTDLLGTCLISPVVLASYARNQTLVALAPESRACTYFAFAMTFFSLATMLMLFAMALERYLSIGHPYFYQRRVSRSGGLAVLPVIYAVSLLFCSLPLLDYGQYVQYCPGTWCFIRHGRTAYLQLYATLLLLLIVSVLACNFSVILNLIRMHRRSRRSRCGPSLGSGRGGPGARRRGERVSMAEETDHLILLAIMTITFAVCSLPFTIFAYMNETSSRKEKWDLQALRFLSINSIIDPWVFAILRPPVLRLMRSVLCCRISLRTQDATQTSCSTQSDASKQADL

Target: human EP2 receptor (Homo sapiens (Human), UniProt P43116)
Assay: Measurement of EP2 receptor binding affinity ([3H]PGE2 displacement, membrane fraction of HEK293 cells)
Details: PGE2 receptor selectivity, Table 4
Experimental: Measurement of EP2 receptor binding affinity was carried out according to the method of Abramovitz et al. (Biochimica et Biophysica Acta, 1483, 285 (2000)). […] The membrane fraction was recovered on glass fiber filter paper (GF/B, available from Whatman PLC) using a cell harvester (M30R, available from Brandel Inc.), and after washing with a buffer solution (10 mM MES-KOH (pH 6.0), 10 mM MgCl2), radioactivity was measured with a liquid scintillation analyzer (2000CA, available from Packard). […] The dissociation constant (Kd value) was calculated by Scatchard analysis. Incidentally, Compound A shown in the table is a sodium salt of {3-[(4-tert-butylbenzyl)(pyridin-3-ylsulfonyl)aminomethyl]phenoxy}-acetic acid (CP-533,536), which is a compound of Example 14e of WO 99/19300A, and is a control compound having EP2 receptor binding affinity.

Ki: 7.1 nM
SMILES: CCCCC[C@H](O)/C=C/[C@H]1[C@H](O)CC(=O)[C@@H]1C/C=C\CCCC(=O)O [PGE2, reference compound]
